Data taken from publication PMC11931445, “A Novel Compound QO‐83 Alleviates Acute and Chronic Epileptic Seizures in Rodents by Modulating KV7 Channel Activity” (CNS Neuroscience & Therapeutics, 2025).
Where two headings read alike, the source gives them in different places.

Protein sequences, listed by entry. Tags and fused reporters are not part of them. Lines headed by an entry give the natural chain unless they say otherwise; changes in a name come on top.
UniProt P56696, whole entry: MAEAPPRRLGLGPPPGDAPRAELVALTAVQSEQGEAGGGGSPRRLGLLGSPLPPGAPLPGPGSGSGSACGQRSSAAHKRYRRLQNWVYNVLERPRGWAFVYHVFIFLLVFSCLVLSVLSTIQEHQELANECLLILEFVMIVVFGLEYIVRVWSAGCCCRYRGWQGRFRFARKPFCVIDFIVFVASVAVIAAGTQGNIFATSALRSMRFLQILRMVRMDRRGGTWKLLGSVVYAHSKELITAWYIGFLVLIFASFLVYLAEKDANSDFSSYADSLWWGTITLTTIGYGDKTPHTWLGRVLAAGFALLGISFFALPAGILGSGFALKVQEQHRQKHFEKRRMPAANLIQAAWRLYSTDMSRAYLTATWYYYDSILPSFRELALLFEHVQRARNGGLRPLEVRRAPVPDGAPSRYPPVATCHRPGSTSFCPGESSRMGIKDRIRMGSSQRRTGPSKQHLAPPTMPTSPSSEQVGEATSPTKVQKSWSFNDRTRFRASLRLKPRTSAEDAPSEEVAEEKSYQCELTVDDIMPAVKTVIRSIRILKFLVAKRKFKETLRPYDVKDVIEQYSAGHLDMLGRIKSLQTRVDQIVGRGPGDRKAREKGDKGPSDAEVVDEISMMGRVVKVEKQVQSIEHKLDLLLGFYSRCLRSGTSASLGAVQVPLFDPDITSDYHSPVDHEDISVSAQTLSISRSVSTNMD
UniProt O43526, whole entry: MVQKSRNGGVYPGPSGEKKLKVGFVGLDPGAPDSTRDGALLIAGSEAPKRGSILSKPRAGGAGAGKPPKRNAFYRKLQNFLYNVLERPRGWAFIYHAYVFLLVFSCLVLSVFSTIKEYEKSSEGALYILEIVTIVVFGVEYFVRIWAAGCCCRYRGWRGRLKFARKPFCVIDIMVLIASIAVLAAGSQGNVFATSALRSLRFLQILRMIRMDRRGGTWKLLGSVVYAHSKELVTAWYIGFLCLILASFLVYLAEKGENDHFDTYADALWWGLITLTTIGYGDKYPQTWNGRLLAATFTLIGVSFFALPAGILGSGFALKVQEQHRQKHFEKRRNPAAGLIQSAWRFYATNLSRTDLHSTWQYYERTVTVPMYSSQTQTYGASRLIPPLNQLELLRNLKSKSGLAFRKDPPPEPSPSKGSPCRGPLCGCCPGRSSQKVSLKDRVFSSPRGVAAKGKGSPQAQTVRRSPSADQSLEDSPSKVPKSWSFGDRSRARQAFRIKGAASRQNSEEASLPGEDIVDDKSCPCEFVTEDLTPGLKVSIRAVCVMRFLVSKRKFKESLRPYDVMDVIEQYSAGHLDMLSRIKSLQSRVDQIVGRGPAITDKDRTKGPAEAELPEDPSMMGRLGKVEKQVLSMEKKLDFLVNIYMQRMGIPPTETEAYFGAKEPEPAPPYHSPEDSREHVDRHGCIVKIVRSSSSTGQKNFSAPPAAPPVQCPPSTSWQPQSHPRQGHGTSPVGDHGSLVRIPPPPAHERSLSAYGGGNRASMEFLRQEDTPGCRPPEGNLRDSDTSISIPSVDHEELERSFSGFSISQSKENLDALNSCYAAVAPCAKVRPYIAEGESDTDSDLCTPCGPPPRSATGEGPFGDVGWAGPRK
UniProt O43526, whole entry A306T: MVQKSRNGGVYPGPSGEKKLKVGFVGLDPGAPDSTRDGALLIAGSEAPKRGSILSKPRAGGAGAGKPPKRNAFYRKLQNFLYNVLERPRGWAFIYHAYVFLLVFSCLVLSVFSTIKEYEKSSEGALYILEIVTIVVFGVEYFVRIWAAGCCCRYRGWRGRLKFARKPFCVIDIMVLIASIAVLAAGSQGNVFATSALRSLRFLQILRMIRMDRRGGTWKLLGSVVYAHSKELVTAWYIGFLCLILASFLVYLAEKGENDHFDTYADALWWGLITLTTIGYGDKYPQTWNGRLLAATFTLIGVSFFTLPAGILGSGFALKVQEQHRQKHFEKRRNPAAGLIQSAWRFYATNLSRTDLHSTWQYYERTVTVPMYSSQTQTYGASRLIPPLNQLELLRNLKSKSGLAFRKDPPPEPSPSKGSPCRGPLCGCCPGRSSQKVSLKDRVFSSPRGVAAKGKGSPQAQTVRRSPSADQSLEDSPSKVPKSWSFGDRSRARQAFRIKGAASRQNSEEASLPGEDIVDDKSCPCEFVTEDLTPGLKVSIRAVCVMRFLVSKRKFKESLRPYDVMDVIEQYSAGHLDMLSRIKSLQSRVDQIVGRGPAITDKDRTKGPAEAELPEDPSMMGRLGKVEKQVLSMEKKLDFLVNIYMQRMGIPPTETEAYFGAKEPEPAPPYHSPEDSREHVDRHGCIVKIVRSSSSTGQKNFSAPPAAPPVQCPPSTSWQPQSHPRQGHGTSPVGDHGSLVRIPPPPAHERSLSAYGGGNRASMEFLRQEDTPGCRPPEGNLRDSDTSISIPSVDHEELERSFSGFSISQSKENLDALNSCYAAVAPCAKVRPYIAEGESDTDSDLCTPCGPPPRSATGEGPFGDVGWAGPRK
UniProt O43526, whole entry F104A: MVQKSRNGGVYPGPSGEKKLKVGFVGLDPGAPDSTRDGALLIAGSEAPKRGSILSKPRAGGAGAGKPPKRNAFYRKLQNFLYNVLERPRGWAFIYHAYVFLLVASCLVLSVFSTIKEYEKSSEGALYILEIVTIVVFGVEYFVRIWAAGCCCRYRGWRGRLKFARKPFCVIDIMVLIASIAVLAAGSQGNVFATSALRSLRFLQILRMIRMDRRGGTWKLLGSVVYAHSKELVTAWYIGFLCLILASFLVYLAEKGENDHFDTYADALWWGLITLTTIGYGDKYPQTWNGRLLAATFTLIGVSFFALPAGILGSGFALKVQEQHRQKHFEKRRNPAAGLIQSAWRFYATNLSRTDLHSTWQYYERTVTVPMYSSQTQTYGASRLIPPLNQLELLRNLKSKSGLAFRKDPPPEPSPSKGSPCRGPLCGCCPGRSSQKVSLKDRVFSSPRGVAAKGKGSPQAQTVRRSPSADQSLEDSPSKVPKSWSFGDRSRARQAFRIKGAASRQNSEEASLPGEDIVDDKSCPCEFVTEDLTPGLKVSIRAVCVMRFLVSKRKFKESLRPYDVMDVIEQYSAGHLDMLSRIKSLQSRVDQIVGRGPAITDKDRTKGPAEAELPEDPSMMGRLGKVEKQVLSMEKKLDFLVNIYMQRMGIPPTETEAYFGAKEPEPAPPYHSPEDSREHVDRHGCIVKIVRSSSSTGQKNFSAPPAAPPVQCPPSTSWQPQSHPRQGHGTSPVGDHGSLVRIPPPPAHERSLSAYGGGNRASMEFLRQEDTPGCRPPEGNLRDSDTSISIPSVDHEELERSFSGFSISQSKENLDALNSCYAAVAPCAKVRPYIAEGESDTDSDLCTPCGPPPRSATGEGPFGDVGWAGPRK
UniProt O43526, whole entry Y284C: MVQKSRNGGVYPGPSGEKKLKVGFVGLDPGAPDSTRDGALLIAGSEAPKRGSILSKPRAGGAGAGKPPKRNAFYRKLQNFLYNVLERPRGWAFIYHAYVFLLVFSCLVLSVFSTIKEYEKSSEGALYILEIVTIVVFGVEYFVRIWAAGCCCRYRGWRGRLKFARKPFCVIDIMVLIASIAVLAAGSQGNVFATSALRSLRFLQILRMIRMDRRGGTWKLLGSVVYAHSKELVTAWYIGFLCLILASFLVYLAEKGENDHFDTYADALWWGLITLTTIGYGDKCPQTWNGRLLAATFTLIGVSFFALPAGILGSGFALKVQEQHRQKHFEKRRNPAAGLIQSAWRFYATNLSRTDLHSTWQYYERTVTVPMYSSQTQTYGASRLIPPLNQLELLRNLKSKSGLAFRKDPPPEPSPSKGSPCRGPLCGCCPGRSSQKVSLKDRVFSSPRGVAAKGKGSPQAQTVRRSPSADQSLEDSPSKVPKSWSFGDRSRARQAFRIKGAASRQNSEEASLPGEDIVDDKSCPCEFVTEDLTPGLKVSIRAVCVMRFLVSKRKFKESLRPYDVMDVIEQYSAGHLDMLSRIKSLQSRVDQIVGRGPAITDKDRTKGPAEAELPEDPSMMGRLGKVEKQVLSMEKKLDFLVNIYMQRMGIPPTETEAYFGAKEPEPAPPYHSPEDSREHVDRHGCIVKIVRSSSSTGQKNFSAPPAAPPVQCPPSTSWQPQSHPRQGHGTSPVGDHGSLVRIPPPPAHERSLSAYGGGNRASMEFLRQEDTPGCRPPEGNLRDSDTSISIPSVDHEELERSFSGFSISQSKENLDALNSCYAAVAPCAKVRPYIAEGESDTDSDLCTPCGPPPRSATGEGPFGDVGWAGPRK
UniProt O43526, whole entry W236L: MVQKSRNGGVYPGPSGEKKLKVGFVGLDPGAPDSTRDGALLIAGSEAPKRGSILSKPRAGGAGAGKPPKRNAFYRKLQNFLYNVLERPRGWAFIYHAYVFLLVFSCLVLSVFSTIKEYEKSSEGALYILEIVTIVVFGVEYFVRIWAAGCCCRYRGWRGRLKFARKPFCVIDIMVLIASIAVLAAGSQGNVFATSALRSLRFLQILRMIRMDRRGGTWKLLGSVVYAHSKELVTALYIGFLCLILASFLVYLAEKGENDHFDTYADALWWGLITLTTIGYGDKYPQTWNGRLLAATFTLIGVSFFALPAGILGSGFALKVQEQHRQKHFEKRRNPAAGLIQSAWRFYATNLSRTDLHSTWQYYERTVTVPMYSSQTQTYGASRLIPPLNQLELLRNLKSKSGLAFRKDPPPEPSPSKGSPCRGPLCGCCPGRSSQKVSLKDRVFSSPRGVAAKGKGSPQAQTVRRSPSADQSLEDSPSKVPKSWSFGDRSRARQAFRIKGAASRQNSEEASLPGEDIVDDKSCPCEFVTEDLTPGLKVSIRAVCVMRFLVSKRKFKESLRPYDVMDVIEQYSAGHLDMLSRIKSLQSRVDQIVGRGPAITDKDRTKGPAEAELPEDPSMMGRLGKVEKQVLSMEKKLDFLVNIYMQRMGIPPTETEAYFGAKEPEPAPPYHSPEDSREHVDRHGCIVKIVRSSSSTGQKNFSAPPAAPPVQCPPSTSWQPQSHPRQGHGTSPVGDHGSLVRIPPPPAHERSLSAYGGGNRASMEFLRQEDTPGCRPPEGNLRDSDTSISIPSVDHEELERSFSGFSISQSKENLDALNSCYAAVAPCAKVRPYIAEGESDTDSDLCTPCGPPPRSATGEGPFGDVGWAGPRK
UniProt Q9NR82, whole entry: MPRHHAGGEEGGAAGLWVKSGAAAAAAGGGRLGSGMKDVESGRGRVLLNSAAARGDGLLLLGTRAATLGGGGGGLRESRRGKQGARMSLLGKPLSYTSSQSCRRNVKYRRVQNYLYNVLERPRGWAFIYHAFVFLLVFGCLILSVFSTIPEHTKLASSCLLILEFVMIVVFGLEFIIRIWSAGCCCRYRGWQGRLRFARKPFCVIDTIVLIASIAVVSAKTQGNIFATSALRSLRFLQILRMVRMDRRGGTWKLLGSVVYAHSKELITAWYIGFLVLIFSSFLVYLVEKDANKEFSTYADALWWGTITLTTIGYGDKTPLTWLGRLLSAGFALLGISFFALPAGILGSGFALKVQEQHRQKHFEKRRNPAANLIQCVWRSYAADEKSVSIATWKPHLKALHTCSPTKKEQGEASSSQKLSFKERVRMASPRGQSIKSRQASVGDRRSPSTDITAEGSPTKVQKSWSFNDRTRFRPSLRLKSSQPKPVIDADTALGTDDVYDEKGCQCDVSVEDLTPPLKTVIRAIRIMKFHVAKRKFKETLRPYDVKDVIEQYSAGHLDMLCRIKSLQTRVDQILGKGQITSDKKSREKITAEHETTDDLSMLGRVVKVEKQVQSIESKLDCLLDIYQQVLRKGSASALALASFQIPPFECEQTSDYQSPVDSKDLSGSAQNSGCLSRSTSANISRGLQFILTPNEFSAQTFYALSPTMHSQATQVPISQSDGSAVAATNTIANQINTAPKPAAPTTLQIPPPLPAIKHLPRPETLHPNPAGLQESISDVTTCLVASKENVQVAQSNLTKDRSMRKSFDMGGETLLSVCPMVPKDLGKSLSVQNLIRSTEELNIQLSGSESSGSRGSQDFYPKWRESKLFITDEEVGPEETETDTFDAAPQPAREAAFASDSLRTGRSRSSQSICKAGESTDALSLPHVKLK

Assays:
[1] = target: T1, KV7.4 (Homo sapiens, UniProt P56696); assay: Manual patch clamp, KV7 currents; conditions: for EC50: Hill fitting
[2] = target: KV7.2 (Homo sapiens, UniProt O43526); assay: Manual patch clamp, KV7 currents; conditions: for EC50: Hill fitting
[3] = target: KV7.5 (Homo sapiens, UniProt Q9NR82); assay: Manual patch clamp, KV7 currents; conditions: for EC50: Hill fitting
[4] = target: KV7.2^F104A (Homo sapiens, UniProt O43526, F104A); assay: Patch clamp on KV7.2 binding site mutant; conditions: 10 µM
[5] = target: KV7.2^W236L (Homo sapiens, UniProt O43526, W236L); assay: Patch clamp on KV7.2 binding site mutant; conditions: 10 µM
[6] = target: KV7.2^A306T (Homo sapiens, UniProt O43526, A306T); assay: Patch clamp on KV7.2 epilepsy mutant; conditions: 10 µM
[7] = target: KV7.2^Y284C (Homo sapiens, UniProt O43526, Y284C); assay: Patch clamp on KV7.2 epilepsy mutant; conditions: 10 µM
[8] = test system: electroshock seizures; assay: Maximal electroshock seizure (MES) model
[9] = target: T1, KV7.4; assay: Rb+ efflux high-throughput screening (ICR 8000); type: cell-based; conditions: read-out: EC50 for activation of KV7.4 channels, stably expressed in HEK293 cells
[10] = test system: PTZ kindling seizures; assay: Chronic PTZ-induced epileptic kindling model; type: in vivo, Wistar Institute rats
[11] = test system: PTZ-induced seizures; assay: Metrazol maximal seizure (MMS) model; conditions: for seizure latency: model 6.92 ± 1.67 min

## Nc1c(NC(=O)CCC2CCCC2)ccc(NCc2ccc(C(F)(F)F)cc2)c1F
[1]; KV7.4, 5.00 μM
  activation curve V1/2: -35.78 ± 2.41 mV
[1]; KV7.4, 10 μM
  shift of activation V1/2: −10.01 mV
[1]; KV7.4, 10.00 μM
  activation curve V1/2: -32.52 ± 2.52 mV
[1]; KV7.4, 10 μM, Mean ± SE
  Activation τ (10 mV): 227.33 ± 52.03 ms
  Deactivation τ (-120 mV): 72.08 ± 6.24 ms
[1]; read-out: EC50 for opening KV7.4, manual patch clamp
  EC50: 0.67 µM
[1]; read-out: EC50 of ΔV1/2, KV7.4, activation shift
  EC50: 0.52 µM
[2]; 1 μM QO-83 co-applied with 20 μM XE991
  effect on KV7.2 channel current: did not further increase the KV7.2 channel current
[2]; KV7.2, 0.01 μM
  activation curve V1/2: -20.30 ± 1.48 mV
[2]; KV7.2, 0.05 μM
  activation curve V1/2: -21.38 ± 1.03 mV
[2]; KV7.2, 0.10 μM
  activation curve V1/2: -29.20 ± 1.24 mV
[2]; KV7.2, 0.50 μM
  activation curve V1/2: -39.26 ± 1.00 mV
[2]; KV7.2, 1.00 μM
  activation curve V1/2: -34.18 ± 1.18 mV
[2]; KV7.2, 5.00 μM
  activation curve V1/2: -38.46 ± 1.19 mV
[2]; KV7.2, 10.00 μM
  activation curve V1/2: -45.37 ± 1.26 mV
[2]; KV7.2, 10 μM, Mean ± SE
  Activation τ (10 mV): 201.23 ± 62.21 ms
  Deactivation τ (-120 mV): 115.04 ± 18.26 ms
[2]; QO-83 alone
  effect on KV7.2 channel current: significantly increased the KV7.2 channel current
[2]; read-out: EC50 for opening KV7.2, manual patch clamp
  EC50: 0.56 µM
[2]; read-out: EC50 of ΔV1/2, KV7.2, activation shift
  EC50: 0.25 µM
[3]; KV7.5, 0.01 μM
  activation curve V1/2: -40.14 ± 1.96 mV
[3]; KV7.5, 0.05 μM
  activation curve V1/2: -37.74 ± 1.98 mV
[3]; KV7.5, 0.10 μM
  activation curve V1/2: -44.84 ± 2.17 mV
[3]; KV7.5, 0.50 μM
  activation curve V1/2: -44.43 ± 3.78 mV
[3]; KV7.5, 1.00 μM
  activation curve V1/2: -58.71 ± 2.45 mV
[3]; KV7.5, 5.00 μM
  activation curve V1/2: -61.54 ± 2.70 mV
[3]; KV7.5, 10 μM
  shift of activation V1/2: −26.28 mV
[3]; KV7.5, 10.00 μM
  activation curve V1/2: -65.46 ± 2.19 mV
[3]; KV7.5, 10 μM, Mean ± SE
  Activation τ (10 mV): 181.42 ± 22.22 ms
  Deactivation τ (-120 mV): 95.34 ± 8.82 ms
[3]; read-out: EC50 for opening KV7.5, manual patch clamp
  EC50: 0.59 µM
[3]; read-out: EC50 of ΔV1/2, KV7.5, activation shift
  EC50: 0.74 µM
[4]
  hyperpolarizing shift of V1/2: 8.55 mV
[4]; 0 mV, 1000 ms stimulation
  effect on current density: did not have a significant effect
[4]; control -17.06 ± 1.27 mV
  V1/2 of activation: -25.61 ± 1.08 mV
[5]; 0 mV, 1000 ms stimulation
  effect on current density: no significant effect on the current density
[5]; control -18.91 ± 3.20 mV
  V1/2 of activation: -19.33 ± 2.09 mV
[6]
  hyperpolarizing shift of V1/2: 16.86 mV
[6]; 0 mV, 1000 ms stimulation
  effect on current density: significantly increased the current density
[6]; control -27.58 ± 1.23 mV
  V1/2 of activation: -44.44 ± 0.90 mV
[7]
  hyperpolarizing shift of V1/2: 9.58 mV
[7]; 0 mV, 1000 ms stimulation
  effect on current density: still increased the current density
[7]; control -18.46 ± 3.20 mV
  V1/2 of activation: -28.04 ± 2.81 mV
[8]; 1 mg/kg i.p.
  electroshock protection rate: 10%
[8]; 1.5 mg/kg i.p.
  electroshock protection rate: 50%
[8]; 2 mg/kg i.p.
  electroshock protection rate: 60%
[8]; 2.5 mg/kg i.p.
  electroshock protection rate: 80%
[8]; 3 mg/kg i.p.
  electroshock protection rate: 100%
[8]; i.p., fitted to a logistic function
  ED50 (anticonvulsant protection, MES): 2.27 ± 1.29 mg/kg
[9]
  EC50: 0.84 µM
[10]; 1 mg/kg
  effect on latency period: significantly prolong the latency period
[10]; 1 mg/kg i.p. daily, 30th day, model 4.68 ± 0.62
  seizure grade: 2.12 ± 0.22
[11]; 1 mg/kg
  seizure protection rate: 25%
[11]; 1.0 mg/kg i.p.
  seizure latency: 14.45 ± 2.54 min
[11]; 3 mg/kg
  seizure protection rate: 45%
[11]; 3.0 mg/kg i.p.
  seizure latency: 19.43 ± 2.42 min
